CycPeptMPDB entries from one study

PAMPA is the parallel artificial membrane permeability assay, which has no cells and reads passive diffusion. P is given in units of 10^-6 cm/s (from log10 values with two decimals); larger means faster passage.

compound	PAMPA (10^-6 cm/s)
CC(C)C[C@@H]1C(=O)N(C)[C@@H](CC(C)C)C(=O)N2CCC[C@@H]2C(=O)N(C)[C@@H](CC(C)C)C(=O)N[C@@H](Cc2ccccc2)C(=O)N2CCC[C@@H]2C(=O)N[C@@H](C)C(=O)N1C	12
CC(C)C[C@@H]1NC(=O)[C@@H](C)NC(=O)[C@H](Cc2ccccc2)NC(=O)[C@@H](CC(C)C)N(C)C(=O)[C@H]2CCCN2C(=O)[C@H](CC(C)C)NC1=O	6.3
CC(C)C[C@@H]1NC(=O)[C@@H](C)N(C)C(=O)[C@H]2CCCN2C(=O)[C@H](Cc2ccccc2)NC(=O)CN(Cc2ccccc2)C(=O)[C@H]2CCCN2C(=O)[C@@H](CC(C)C)N(C)C1=O	0.76
CC(C)C[C@@H]1C(=O)N[C@@H](Cc2ccccc2)C(=O)N2CCC[C@@H]2C(=O)N[C@H](C)C(=O)N[C@H](CC(C)C)C(=O)N(C)[C@@H](CC(C)C)C(=O)N2CCC[C@H]2C(=O)N1C	1.1
CC(C)C[C@@H]1NC(=O)[C@@H](C)N(C)C(=O)[C@H]2CCCN2C(=O)[C@H](Cc2ccccc2)NC(=O)[C@@H](CC(C)C)NC(=O)[C@@H]2CCCN2C(=O)[C@H](CC(C)C)N(C)C1=O	0.87
CC(C)C[C@@H]1NC(=O)C[C@H](Cc2ccccc2)NC(=O)[C@H]2CCCN2C(=O)[C@H](Cc2ccccc2)NC(=O)CN(Cc2ccccc2)C(=O)[C@H]2CCCN2C(=O)[C@@H](CC(C)C)NC1=O	0.31
CC(C)C[C@@H]1C(=O)N2CCC[C@H]2C(=O)N(C)[C@@H](CC(C)C)C(=O)N[C@@H](Cc2ccccc2)C(=O)N2CCC[C@@H]2C(=O)N[C@@H](Cc2ccccc2)CC(=O)N[C@H](CC(C)C)C(=O)N1C	4.9
CC(C)C[C@H]1NC(=O)[C@@H](C)NC(=O)[C@@H]2CCCN2C(=O)[C@H](Cc2ccccc2)NC(=O)[C@H](CC(C)C)N(C)C(=O)[C@@H]2CCCN2C(=O)[C@H](CC(C)C)N(C)C1=O	2.5
CC(C)C[C@H]1NC(=O)[C@@H](C)N(C)C(=O)[C@H]2CCCN2C(=O)[C@H](Cc2ccccc2)NC(=O)CN(Cc2ccccc2)C(=O)[C@@H]2CCCN2C(=O)[C@@H](CC(C)C)NC1=O	1
CC(C)C[C@@H]1NC(=O)C[C@H](Cc2ccccc2)NC(=O)[C@@H]2CCCN2C(=O)[C@H](Cc2ccccc2)NC(=O)[C@H](CC(C)C)NC(=O)[C@@H]2CCCN2C(=O)[C@@H](CC(C)C)NC1=O	0.51
CCCN1CC(=O)N[C@@H](CC(C)C)C(=O)N(C)[C@H](CC(C)C)C(=O)N2CCC[C@H]2C(=O)N[C@@H](CC(C)C)C(=O)N[C@@H](Cc2ccccc2)C(=O)N2CCC[C@H]2C1=O	1.3
CC(C)C[C@@H]1C(=O)N[C@@H](Cc2ccccc2)C(=O)N2CCC[C@H]2C(=O)N(C)[C@@H](C)C(=O)N(C)[C@@H](CC(C)C)C(=O)N(C)[C@@H](CC(C)C)C(=O)N2CCC[C@@H]2C(=O)N1C	4.9
CC(C)C[C@@H]1NC(=O)[C@H]2CCCN2C(=O)[C@@H](CC(C)C)N(C)C(=O)[C@@H](CC(C)C)NC(=O)C[C@H](Cc2ccccc2)NC(=O)[C@H](Cc2ccccc2)NC1=O	1.7
CC(C)C[C@@H]1C(=O)N[C@@H](Cc2ccccc2)C(=O)N[C@@H](Cc2ccccc2)CC(=O)N(C)[C@@H](CC(C)C)C(=O)N[C@H](CC(C)C)C(=O)N2CCC[C@@H]2C(=O)N1C	10
CCCN1CC(=O)N(C)[C@H](CC(C)C)C(=O)N(C)[C@H](CC(C)C)C(=O)N2CCC[C@H]2C(=O)N[C@H](CC(C)C)C(=O)N[C@@H](Cc2ccccc2)C(=O)N2CCC[C@H]2C1=O	2.6
CC(C)C[C@@H]1NC(=O)[C@@H](C)N(C)C(=O)[C@H]2CCCN2C(=O)[C@H](Cc2ccccc2)NC(=O)[C@@H](CC(C)C)N(C)C(=O)[C@H]2CCCN2C(=O)[C@@H](CC(C)C)NC1=O	1.5
CC(C)C[C@@H]1C(=O)N[C@@H](Cc2ccccc2)C(=O)N2CCC[C@H]2C(=O)N(C)[C@@H](C)C(=O)N[C@H](CC(C)C)C(=O)N[C@H](CC(C)C)C(=O)N2CCC[C@H]2C(=O)N1C	1
CC(C)C[C@@H]1NC(=O)[C@H](CC(C)C)N(C)C(=O)[C@@H](C)NC(=O)[C@@H]2CCCN2C(=O)[C@H](Cc2ccccc2)NC(=O)[C@@H](CC(C)C)N(C)C(=O)[C@@H]2CCCN2C1=O	1.5
CC(C)C[C@H]1NC(=O)[C@H]2CCCN2C(=O)CN(Cc2ccccc2)C(=O)[C@@H](CC(C)C)NC(=O)[C@@H](C)NC(=O)[C@H](Cc2ccccc2)NC1=O	1.9
CC(C)C[C@@H]1NC(=O)[C@H](CC(C)C)N(C)C(=O)[C@H](C)N(C)C(=O)[C@H]2CCCN2C(=O)[C@H](Cc2ccccc2)NC(=O)CN(Cc2ccccc2)C(=O)[C@@H]2CCCN2C1=O	6.5

Repeated from above, the 2 entries with the highest PAMPA:

compound	PAMPA (10^-6 cm/s)
CC(C)C[C@@H]1C(=O)N(C)[C@@H](CC(C)C)C(=O)N2CCC[C@@H]2C(=O)N(C)[C@@H](CC(C)C)C(=O)N[C@@H](Cc2ccccc2)C(=O)N2CCC[C@@H]2C(=O)N[C@@H](C)C(=O)N1C	12
CC(C)C[C@@H]1C(=O)N[C@@H](Cc2ccccc2)C(=O)N[C@@H](Cc2ccccc2)CC(=O)N(C)[C@@H](CC(C)C)C(=O)N[C@H](CC(C)C)C(=O)N2CCC[C@@H]2C(=O)N1C	10

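Conditions beyond the assay type are not listed; see the original paper. Other peptides of the study may be missing here. Peptides that the database sets to -10, its floor, are left out.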

Data: CycPeptMPDB; original report Townsend et al. 2020, doi:10.26434/chemrxiv.13335941.v1.